Experimental data published in paper PMC5717261 (Scientific Reports, 2017).

Legend:
[1] = target: T1, Recombinant human mammalian tolloid-like-1 (mTLL-1) with a C-terminal 6x-His tag (human, UniProt O43897 148-1013); experiment: SPR; BIAcore 3000, 25 °C; BMP-1, mTLL-1 or MASP-2 immobilised by amine coupling on CM5; C1q or MBL injected (60 µl, 20 µl/min) at several concentrations in 50 mM triethanolamine-HCl, 145 mM NaCl, 2 mM CaCl2, 0.005% surfactant P20, pH 7.4; global fit to a 1:1 Langmuir model; apparent KD from kd/ka; details: both partners purified
T1 construct: mammalian tolloid-like-1 (mTLL-1), human; also called mTTL-1; source: HEK 293-EBNA cells, purified
T1 sequence (looked up): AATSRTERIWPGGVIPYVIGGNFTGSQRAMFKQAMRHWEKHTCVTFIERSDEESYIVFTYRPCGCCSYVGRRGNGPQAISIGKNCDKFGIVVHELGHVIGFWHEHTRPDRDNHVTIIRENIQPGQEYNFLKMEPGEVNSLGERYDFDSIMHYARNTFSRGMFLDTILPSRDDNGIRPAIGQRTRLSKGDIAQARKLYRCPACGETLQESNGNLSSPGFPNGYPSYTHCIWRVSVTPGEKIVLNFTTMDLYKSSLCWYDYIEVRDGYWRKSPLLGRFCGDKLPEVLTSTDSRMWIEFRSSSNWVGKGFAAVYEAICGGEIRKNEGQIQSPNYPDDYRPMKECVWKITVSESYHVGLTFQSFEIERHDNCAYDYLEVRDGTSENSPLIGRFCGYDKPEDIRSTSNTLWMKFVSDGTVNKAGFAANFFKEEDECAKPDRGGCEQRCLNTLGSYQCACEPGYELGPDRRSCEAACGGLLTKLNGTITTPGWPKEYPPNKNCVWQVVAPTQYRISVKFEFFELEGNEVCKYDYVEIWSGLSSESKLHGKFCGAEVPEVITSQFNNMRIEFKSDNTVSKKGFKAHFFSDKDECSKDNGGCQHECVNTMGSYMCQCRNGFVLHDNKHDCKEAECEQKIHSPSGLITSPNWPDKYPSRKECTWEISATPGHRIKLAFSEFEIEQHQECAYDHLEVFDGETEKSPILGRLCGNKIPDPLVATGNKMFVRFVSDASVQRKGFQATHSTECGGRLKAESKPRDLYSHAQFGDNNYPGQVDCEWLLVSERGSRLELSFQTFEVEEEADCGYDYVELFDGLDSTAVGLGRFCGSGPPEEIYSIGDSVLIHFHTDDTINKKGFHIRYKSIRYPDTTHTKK

[2] = target: T2, Recombinant human bone morphogenetic protein-1 (BMP-1) with a C-terminal FLAG tag (human, UniProt P13497-2 121-730); experiment: as above; details: both partners purified
T2 construct: BMP-1, human; the shorter splice product of the gene that also gives mTLD (identical to mTLD up to the end of the CUB3 domain); source: HEK 293-EBNA cells, purified
T2 sequence (looked up): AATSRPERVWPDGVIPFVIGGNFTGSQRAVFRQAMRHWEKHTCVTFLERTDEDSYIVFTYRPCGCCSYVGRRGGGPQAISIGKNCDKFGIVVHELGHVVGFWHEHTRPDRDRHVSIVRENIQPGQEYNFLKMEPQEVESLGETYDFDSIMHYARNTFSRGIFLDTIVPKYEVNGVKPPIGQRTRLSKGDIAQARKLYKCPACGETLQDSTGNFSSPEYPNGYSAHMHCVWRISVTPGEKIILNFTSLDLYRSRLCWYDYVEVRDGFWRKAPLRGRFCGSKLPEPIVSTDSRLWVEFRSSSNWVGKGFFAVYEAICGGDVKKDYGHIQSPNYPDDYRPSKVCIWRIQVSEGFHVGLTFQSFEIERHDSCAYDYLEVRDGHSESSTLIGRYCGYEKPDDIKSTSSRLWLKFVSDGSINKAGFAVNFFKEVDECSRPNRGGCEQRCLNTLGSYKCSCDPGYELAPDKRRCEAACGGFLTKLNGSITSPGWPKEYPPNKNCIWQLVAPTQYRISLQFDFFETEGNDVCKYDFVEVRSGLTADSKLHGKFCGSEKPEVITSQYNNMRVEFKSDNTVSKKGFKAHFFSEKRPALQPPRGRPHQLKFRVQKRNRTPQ

Kd [1]: 0.58 nM
koff [1]: 0.00082 s⁻¹
kon [1]: 1.4e+06 M⁻¹ s⁻¹
Kd [2]: 1.3 nM
koff [2]: 0.00087 s⁻¹
kon [2]: 740000 M⁻¹ s⁻¹
B1: Recombinant human mannose-binding lectin (MBL) (natural protein, UniProt P11226 21-248, looked up)
chain: ETVTCEDAQKTCPAVIACSSPGINGFPGKDGRDGTKGEKGEPGQGLRGLQGPPGKLGPPGNPGPSGSPGPKGQKGDPGKSPDGDSSLAASERKALQTEMARIKKWLTFSLGKQVGNKFFLTNGEIMTFEKVKALCVKFQASVATPRNAAENGAIQNLIKEEAFLGITDEKTEGQFVDLTGNRLTYTNWNEGEPNNAGSDEDCVLLLKNGQWNDVPCSTSHLAVCEFPI
notes: Mixture of oligomers; also called wild-type (wt) MBL; source: Freestyle 293-F cells, purified (N-acetylglucosamine-agarose)
